Results taken from patent US20100286233A1, “PERIPHERAL AND NEURAL INFLAMMATORY CROSSTALK” (University of Rochester, priority 2006, published 2010).

System: C2C12 cell line
Test: C2C12 conversion to osteoblastic phenotype, alkaline phosphatase histochemistry
Type: cell-based
Details: BMP-2 300 ng/mL over 4 days
Protocol: In vitro studies: The C2C12 cell line, an in vitro model of chondrocyte differentiation and maturation, was obtained from ATCC and cultured in DMEM plus 10% normal bovine serum for 4 days as previously described (Katagiri, T., et al. 1994). In addition, cells were treated with BMP-2 (300 ng/mL) or alternatively with BMP-2 plus PGE2 (10^−8M) or recombinant IL-1β (10 ng/mL) or butaprost (10^−8M) in the culture medium. At the end of the experiment, cells were fixed with 10% formalin. Alkaline phosphatase expression was evaluated using the BCIP/NBT histochemistry method (Vector Labs, Burlingame Calif.). Positively-stained cells were counted in 10 random 20× fields using an inverted Olympus CK41 microscope.

B1: BMP-2: BMP-2 added to C2C12 culture medium at 300 ng/mL (protein, UniProt P12643 283-396, looked up)
Bone morphogenetic protein 2: QAKHKQRKRLKSSCKRHPLYVDFSDVGWNDWIVAPPGYHAFYCHGECPFPLADHLNSTNHAIVQTLVNSVNSKIPKACCVPTELSAISMLYLDENEKVVLKNYQDMVVEGCGCR
cells in culture expressing alkaline phosphatase: 10%
